Assay results taken from US4497806A, “Triorganotin compounds, antifungal and antibacterial compositions containing same, and method of using same” (priority 1983, dated 1985).

Assays:
[1] = test system: Aspergillus niger (ATCC 12845); assay: Antifungal activity, agar plate growth inhibition; type: cell-based; conditions: 14 days; also: key: -: no inhibition of growth; +: partial inhibition; 2+: complete inhibition
[2] = test system: Chaetomium globosum (ATCC 6205); assay: Antifungal activity, agar plate growth inhibition; type: cell-based; conditions: 14 days; also: key: -: no inhibition of growth; +: partial inhibition; 2+: complete inhibition
[3] = test system: Cladosporium carpophilium (ATCC 12117); assay: Antifungal activity, agar plate growth inhibition; type: cell-based, Cladosporium carpophilum; conditions: 14 days; also: key: -: no inhibition of growth; +: partial inhibition; 2+: complete inhibition
[4] = test system: Fusarium moniliforme (ATCC 10052); assay: Antifungal activity, agar plate growth inhibition; type: cell-based; conditions: 14 days; also: key: -: no inhibition of growth; +: partial inhibition; 2+: complete inhibition
[5] = test system: Myrothecium verrucaria (ATCC 9095); assay: Antifungal activity, agar plate growth inhibition; type: cell-based; conditions: 14 days; also: key: -: no inhibition of growth; +: partial inhibition; 2+: complete inhibition
[6] = test system: Penicillium notatum (ATCC 9179); assay: Antifungal activity, agar plate growth inhibition; type: cell-based; conditions: 14 days; also: key: -: no inhibition of growth; +: partial inhibition; 2+: complete inhibition
[7] = test system: Rhizopus stolonifer (ATCC 10404); assay: Antifungal activity, agar plate growth inhibition; type: cell-based; conditions: 14 days; also: key: -: no inhibition of growth; +: partial inhibition; 2+: complete inhibition
[8] = test system: Saccharomyces cerevisiae (ATCC 9896); assay: Antifungal activity, agar plate growth inhibition; type: cell-based; conditions: 14 days; also: key: -: no inhibition of growth; +: partial inhibition; 2+: complete inhibition
[9] = test system: Trichoderma viride (ATCC 8678); assay: Antifungal activity, agar plate growth inhibition; type: cell-based; conditions: 14 days; also: key: -: no inhibition of growth; +: partial inhibition; 2+: complete inhibition
Escherichia coli = assay: Antibacterial activity, agar growth inhibition; type: cell-based; conditions: for growth inhibition: Gram-negative, 24 hours at 37° C.
[10] = test system: Trichophyton mentagrophytes (ATCC 9129); assay: Antifungal activity, agar plate growth inhibition; conditions: 14 days; also: key: -: no inhibition of growth; +: partial inhibition; 2+: complete inhibition

For `CC(=O)[N](C#N)[Sn-]([Cl])([c]1ccccc1)([c]1ccccc1)[c]1ccccc1.CC[NH+](CC)CC` [compound 5, Triethylammonium-(acetylcyanoamino)-chloro-triphenyl stannate], the growth inhibition ([1]; 1 μg/ml) was “+”, the growth inhibition ([1]; 10 μg/ml) was “+” and the growth inhibition ([1]; 100 μg/ml) was “+”. The growth inhibition ([2]; 1 μg/ml) was “+”, the growth inhibition ([2]; 10 μg/ml) was “+” and the growth inhibition ([2]; 100 μg/ml) was “+”. The growth inhibition ([3]; 1 μg/ml) was “+”, the growth inhibition ([3]; 10 μg/ml) was “+” and the growth inhibition ([3]; 100 μg/ml) was “+”. The growth inhibition ([4]; 1 μg/ml) was “+”, the growth inhibition ([4]; 10 μg/ml) was “+” and the growth inhibition ([4]; 100 μg/ml) was “+”. The growth inhibition ([5]; 1 μg/ml) was “+”, the growth inhibition ([5]; 10 μg/ml) was “+” and the growth inhibition ([5]; 100 μg/ml) was “+”. The growth inhibition ([6]; 1 μg/ml) was “+”, the growth inhibition ([6]; 10 μg/ml) was “+” and the growth inhibition ([6]; 100 μg/ml) was “+”. For the same compound, the growth inhibition ([7]; 1 μg/ml) was “+”, the growth inhibition ([7]; 10 μg/ml) was “+” and the growth inhibition ([7]; 100 μg/ml) was “+”. The growth inhibition ([8]; 1 μg/ml) was “+”, the growth inhibition ([8]; 10 μg/ml) was “+” and the growth inhibition ([8]; 100 μg/ml) was “+”. The growth inhibition ([9]; 1 μg/ml) was “+”, the growth inhibition ([9]; 10 μg/ml) was “+” and the growth inhibition ([9]; 100 μg/ml) was “+”. The “growth inhibition (in words)” value (Escherichia coli; 100 μg/ml) was “partially”, the growth inhibition (Escherichia coli; 1 μg/ml) was “-” and the growth inhibition (Escherichia coli; 10 μg/ml) was “-”. For the same compound, the growth inhibition ([10]; 1 μg/ml) was “+” and the growth inhibition ([10]; 10 μg/ml) was “+”.
